pKi: −log10 of the molar value. Each block holds one compound with its values, some of them ahead of it.
Columns and labels:
Adenosine receptor A1 [1] = target: T1, Adenosine receptor A1 (Rattus norvegicus, UniProt P25099); experiment: Binding affinity to rat recombinant adenosine A1 receptor
Adenosine receptor A1 [2] = target: T1, Adenosine receptor A1
Homo sapiens = species on record: Homo sapiens; experiment: Selectivity ratio of Ki for human recombinant adenosine A1 receptor to Ki for human recombinant adenosine receptor A2a

Protein sequences, listed by entry. Tags and fused reporters are not part of them.
UniProt P25099, whole entry: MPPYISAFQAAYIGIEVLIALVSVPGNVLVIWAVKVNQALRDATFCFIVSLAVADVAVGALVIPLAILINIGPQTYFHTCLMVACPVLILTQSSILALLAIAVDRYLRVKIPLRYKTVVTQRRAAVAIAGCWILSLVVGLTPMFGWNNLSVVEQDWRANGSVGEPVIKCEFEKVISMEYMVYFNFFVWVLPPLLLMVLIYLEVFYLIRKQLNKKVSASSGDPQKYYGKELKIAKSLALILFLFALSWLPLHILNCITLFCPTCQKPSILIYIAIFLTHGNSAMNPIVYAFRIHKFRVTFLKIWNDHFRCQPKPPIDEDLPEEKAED

pKi (Adenosine receptor A1 [1]): 6.40
SMILES: Nc1nc(Nc2ccccc2)nc2c1ncn2[C@@H]1O[C@H](CO)[C@@H](O)[C@H]1O

SMILES: Cc1cc(-c2nnc(N)nc2-c2ccccc2)cc(C(F)(F)F)n1
AUC (in vivo): 846 ng·h/mL

SMILES: Nc1nc2ccc(Cl)cc2c2nc(-c3ccco3)nn12 [CGS-15943]
pKi (Adenosine receptor A1 [2]): 8.46

Ratio Ki (Homo sapiens): 52
SMILES: Cc1cc(Cn2nnc3c(-c4ccco4)nc(N)nc32)ccc1N [VIPADENANT]
